Results as given in US20250019381A1, “PROCESS FOR THE […] OF 6-((3S,4S)-4-METHYL-1-(PYRIMIDIN-2-[…])PYRROLIDIN-3-YL)-3-(TETRAHYDROPYRAN-4-YL-7H-IMIDAZO[1,5-a]PYRAZIN-8-ONE” (Cardurion Pharmaceuticals, Inc., priority 2017, published 2025).

Assay: Blood Brain Barrier penetration: plasma and brain concentration
Assay type: in vivo

Plasma concentration after 30 minutes (30 min): 1.23 µg/mL
Plasma concentration after 120 minutes (120 min): 0.529 µg/mL
Compound: C[C@@H]1CN(Cc2ncccn2)C[C@H]1c1nc2c(cnn2C2CCOCC2)c(=O)[nH]1 (relative stereo)
